Source: PubChem BioAssay AID1527 (The Scripps Research Institute Molecular Screening Center, 2009)
Only a part is listed here, and it is no random draw. The source made the active and inactive calls.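 The calls were made as follows: active = inhibition above the mean of all tested compounds plus 3 SD, cutoff set per screening run (cut at about 7.5% in these data); inactive = the rest.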

tested on: VIM-2 metallo-beta-lactamase (Pseudomonas aeruginosa); test: VIM-2 metallo-beta-lactamase inhibitors, primary screen, biochemical, epi-absorbance readout, Pseudomonas aeruginosa enzyme (AID 1527); settings: purified VIM-2, nitrocefin hydrolysis, epi-absorbance fluorescence; at 5.6 µM; stronger effect = higher value;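 also: red hydrolysis product quenches plate fluorescence so inhibitors raise well fluorescence; 0% = enzyme with DMSO and 100% = DMSO without enzyme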

Row | Compound | inhibition
1 | CC(=O)Nc1ccc([As](=O)(O)O)cc1 | inactive: -1.69%
2 | O=C(O)c1ccccc1[As](=O)(O)O | inactive: -1.79%
3 | Cc1ccccc1OP(=O)(Nc1ccccn1)Oc1ccccc1C | inactive: -2.16%
4 | O=c1c2cc([N+](=O)[O-])ccc2[nH]c2c([N+](=O)[O-])cc([N+](=O)[O-])cc12 | inactive: -5.92%
5 | CN(C)C(=O)Oc1noc2ccccc12 | inactive: -1.62%
6 | O=C(OC1CN2CCC1CC2)c1ccccc1 (centres undefined) | inactive: -2.05%
7 | CCC(=O)N1C2C3N(C(=O)CC)C1C1N(C(=O)CC)C(C(N1C(=O)CC)N3C(=O)CC)N2C(=O)CC | inactive: -3.1%
8 | COC(=O)c1cc2c(s1)N=C(c1ccccc1)N(C)P2(=O)N1CCOCC1 (centres undefined) | inactive: 3.76%
9 | Cc1ccc(OP(=O)(Nc2ccccn2)Oc2ccc(C)cc2)cc1 | inactive: -1.38%
10 | CC(=O)NC(SC(=S)N(CC(C)C)CC(C)C)C(Cl)(Cl)Cl (centres undefined) | inactive: -1.96%
11 | c1ccc(-c2nn[nH]n2)c(-c2nn[nH]n2)c1 | inactive: -3.19%
12 | CCOC(=O)NC(Sc1ccccc1)C(Cl)(Cl)Cl (centres undefined) | inactive: -0.41%
13 | Cc1ccc(NP(=O)(Oc2cccc(C)c2)Oc2cccc(C)c2)nc1 | inactive: -0.07%
14 | CCNC(=S)/N=C(\N)N[N+](=O)[O-] | inactive: -1.06%
15 | O=C(NC1CCS(=O)(=O)C1)NP(=S)(Oc1ccccc1)Oc1ccccc1 (centres undefined) | inactive: -1.85%
16 | CC(=O)Nc1ccc([As](=O)(O)O)c(O)c1 | inactive: -2.29%
17 | CC(=O)Nc1ccc(Oc2c([N+](=O)[O-])cc([N+](=O)[O-])cc2[N+](=O)[O-])cc1 | inactive: -0.53%

Row | Compound | inhibition
18 | CC(=O)c1ccc(N2CC2c2ccncc2)cc1 (centres undefined) | inactive: -1.85%
19 | CC(C)(C)C(=O)NC(Sc1ccccc1)C(Cl)(Cl)Cl (centres undefined) | inactive: -1.62%
20 | O=P1(Nc2nc3ccc(Cl)cc3s2)COc2ccccc2O1 (centres undefined) | inactive: -2.19%
21 | CCOc1ccc(C2=NCC(CBr)S2)cc1 (centres undefined) | inactive: -3.07%
22 | c1nnnn1CCn1cnnn1 | inactive: -4.58%
23 | CC(C)C(=O)NC(Sc1ccccc1)C(Cl)(Cl)Cl (centres undefined) | inactive: -1.63%
24 | O=P(Nc1nccs1)(c1ccccc1)c1ccccc1 | inactive: -3.31%
25 | O=C(OC1CN2CCC1CC2)c1cccc(Cl)c1 (centres undefined) | inactive: 0.46%
26 | C(Cc1nn[nH]n1)Cc1nn[nH]n1 | inactive: -2.84%
27 | Nc1ccc([As](=O)(O)c2ccc([N+](=O)[O-])cc2)cc1 | inactive: -0.43%
28 | O=[As](O)(c1ccccc1)c1ccc(O)cc1 | inactive: 0.17%
29 | O=[N+]([O-])c1ccc(O)c(/C=N/Nc2ccc([N+](=O)[O-])cc2[N+](=O)[O-])c1 | inactive: -2.71%
30 | O=[N+]([O-])c1ncn(CCn2cnc([N+](=O)[O-])n2)n1 | inactive: -4.21%
31 | CC(=O)NC(SC(=S)N(C)C)C(Cl)(Cl)Cl (centres undefined) | inactive: -2.67%
32 | O=P(Nc1nc2ccccc2s1)(c1ccccc1)c1ccccc1 | inactive: -1.9%
33 | O=P(Nc1ccccn1)(c1ccc(Br)cc1)c1ccc(Br)cc1 | inactive: -2.16%
34 | CN(C)C1(CNC(=O)c2ccc(Cl)c(S(N)(=O)=O)c2)CCCCC1 | inactive: -3.26%
